From publication PMC4209800
Values joined by “and” are separate entries in the source; they are usually repeats but may differ in a detail not shown here. Equal values may be shown once.

Amino acid sequences for entries named in this document (tags omitted). Residues count along the entry.
UniProt P08637, 17-254: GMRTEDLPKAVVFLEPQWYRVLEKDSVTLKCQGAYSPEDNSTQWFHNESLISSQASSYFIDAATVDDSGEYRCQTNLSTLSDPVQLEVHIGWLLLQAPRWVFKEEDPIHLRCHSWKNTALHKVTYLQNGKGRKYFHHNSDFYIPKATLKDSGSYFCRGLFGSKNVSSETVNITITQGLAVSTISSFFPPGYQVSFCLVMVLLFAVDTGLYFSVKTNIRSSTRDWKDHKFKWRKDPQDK

How the values were obtained:
Test in all cases: flow cytometry on cells; IgG pre-complexed with equimolar goat F(ab')2 against its light chain (anti-κ for Fog-1, anti-λ for B2), on CHO cells expressing a single human FcγRII or FcγRIII; complexes detected with FITC anti-goat IgG; mean fluorescence of ≥12 000 cells
[1] = molecular target: FcγRIIa, of allotypes 131R and 131H, and FcγRIIb
[2] = molecular target: human FcγRIIIa of allotype 158F, GPI-anchored (human) (UniProt P08637)
[3] = molecular target: human FcγRIIIa of allotype 158V, GPI-anchored (human)

Fog-1 G1Δnab (antibody) was tested, and the fold less strongly bound than Fog-1 G1 [1] was 3 fold and 8 fold, the fold lower binding than G1 [2] was 100 fold and the fold lower binding than G1 [3] was 50 fold.
